{"source": "patent US20080124407A1", "about": "“INHIBITING CYP3A4 INDUCTION” (UNIVERSITY OF WASHINGTON, priority 2006, published 2008)", "biological_target": "T1, human SXR ligand binding domain (Homo sapiens, UniProt O75469)", "T1 sequence (O75469 146-433 limits assumed)": "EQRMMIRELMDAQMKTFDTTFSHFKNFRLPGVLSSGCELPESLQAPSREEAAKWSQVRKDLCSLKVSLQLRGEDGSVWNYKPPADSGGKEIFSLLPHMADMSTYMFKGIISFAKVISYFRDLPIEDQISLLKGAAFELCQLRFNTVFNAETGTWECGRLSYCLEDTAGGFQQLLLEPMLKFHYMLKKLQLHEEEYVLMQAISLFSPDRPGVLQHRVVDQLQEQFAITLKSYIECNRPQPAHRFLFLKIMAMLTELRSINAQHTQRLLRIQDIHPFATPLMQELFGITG", "assay": "Scintillation proximity ligand binding assay, 3H-SR12813 displacement", "conditions": "dose dependent"}
{"smiles": "Clc1ccccc1C(c1ccccc1)(c1ccccc1)n1ccnc1", "note": "[clotrimazole, reference compound]", "values": [{"measurement": "displacement of 3H-SR12813 from the SXR LBD", "result": "displaced"}]}
